In one assay the target is RBP4 (Homo sapiens (Human), UniProt P02753). As to the kind of experiment: Scintillation proximity (SPA) RBP4 binding assay. The note with it: 10 nM 3H-Retinol, 50 nM biotinylated RBP4. As for the experimental part: Scintillation Proximity RBP4 Binding Assay
Untagged human RBP4 purified from urine of tubular proteinuria patients was purchased from Fitzgerald Industries International. It was biotinylated using the EZ-Link Sulfo-NHS-LC-Biotinylation kit from Pierce following the manufacturer's recommendations. Binding experiments were performed in 96-well plates (OptiPlate, PerkinElmer) in a final assay volume of 100 μl per well in SPA buffer (IX PBS, pH 7.4, 1 mM EDTA, 0.1% BSA, 0.5% CHAPS). The reaction mix contained 10 nM ^3H-Retinol (48.7 Ci/mmol; PerkinElmer), 0.3 mg/well Streptavidin-PVT beads, 50 nM biotinylated RBP4 and a test compound. Nonspecific binding was determined in the presence of 20 μM of unlabeled retinol. The reaction mix was assembled in the dark under dim red light. The plates were sealed with clear tape (TopSeal-A: 96-well microplate, PerkinElmer), wrapped in the aluminum foil, and allowed to equilibrate 6 hours at room temperature followed by overnight incubation at +4° C. Radiocounts were measured using a TopCount NXT counter (Packard Instrument Company).
(SPA uses beads or plates that emit light when radiolabelled molecules are held near them.)

Another assay concerns the target RBP4-TTR interaction (Homo sapiens (Human), UniProt P02753). Nature of the assay: TR-FRET (HTRF) assay for retinol-induced RBP4-TTR interaction. The format is biochemical. As to conditions: in the presence of 1 μM retinol; read-out: HTRF assay for antagonists of RBP4-TTR interaction: IC50. On the procedure: Bacterially expressed MBP-RBP4 and untagged TTR were used in this assay. […] Human untagged TTR was purchased from Calbiochem. […] HTRF assay was performed in white low volume 384 well plates (Greiner-Bio) in a final assay volume of 16 μl per well. […] All reactions were assembled in the dark under dim red light and incubated overnight at +4° C. wrapped in aluminum foil. […] The TR-FRET signal was expressed as the ratio of fluorescence intensity: Flu665/Flu620×10,000.
(TR-FRET usually uses a lanthanide donor and a delayed reading to cut background.)

Where “and” joins values, the source holds several entries; their conditions need not be identical. Equal values may be shown once. Where a name gives a salt, the structure may show the parent alone.

Take `O=C(c1n[nH]c2c1CNCC2)N1CCC(c2cccc(F)c2C(F)(F)F)CC1` [Compound 32, ((4-(3-Fluoro-2-(trifluoromethyl)phenyl)piperidin-1-yl)(4,5,6,7-tetrahydro-1H-pyrazolo[4,3-c]pyridin-3-yl)methanone Hydrochloride]: the results for the concentration for half-maximal inhibition (IC50) on RBP4 and on RBP4-TTR interaction were 62.5 nM and 244 nM, respectively. With `CCN1CCc2[nH]nc(C(=O)N3CCC(c4cccc(F)c4C(F)(F)F)CC3)c2C1` [Compound 67, (5-ethyl-4,5,6,7-tetrahydro-1H-pyrazolo[4,3-c]pyridin-3-yl)(4-(3-fluoro-2-(trifluoromethyl)phenyl)piperidin-1-yl)methanone], the IC50 (as a rule, the point on the concentration scale where inhibition reaches its midpoint) on RBP4 was 8.31 nM; on RBP4-TTR interaction, 40.8 nM. For `O=C(c1n[nH]c2c1CN(CC1CC1)CC2)N1CCC(c2cccc(F)c2C(F)(F)F)CC1` [Compound 69, (5-(Cyclopropylmethyl)-4,5,6,7-tetrahydro-1Hpyrazolo[4,3-c]pyridin-3-yl)(4-(3-fluoro-2-(trifluoromethyl)phenyl)piperidin-1-yl)methanone] the same measures were 10 nM and 26.7 nM. `N#CN1CCc2[nH]nc(C(=O)N3CCC(c4cccc(F)c4C(F)(F)F)CC3)c2C1` [Compound 70, 3-(4-(3-Fluoro-2-(trifluoromethyl)phenyl)piperidine-1-carbonyl)-6,7-dihydro-1H-pyrazolo[4,3-c]pyridine-5(4H)-carbonitrile] came in with an IC50 at RBP4 of 16.4 nM. Turning to `O=C(c1n[nH]c2c1CN(CCC(F)(F)F)CC2)N1CCC(c2cccc(F)c2C(F)(F)F)CC1` [Compound 72, (4-(3-Fluoro-2-(trifluoromethyl)phenyl)piperidin-1-yl)(5-(3,3,3-trifluoropropyl)-4,5,6,7-tetrahydro-1H-pyrazolo[4,3-c]pyridin-3-yl)methanone], the 50% inhibitory concentration (IC50) at RBP4 is 10.8 nM; at RBP4-TTR interaction, 52.8 nM. Take `CC(=O)N1CCc2[nH]nc(C(=O)N3CCC(c4ccc(F)c(F)c4C(F)(F)F)CC3)c2C1` [Compound 82, 1-(3-(4-(3,4-Difluoro-2-(trifluoromethyl)phenyl)piperidine-1-carbonyl)-6,7-dihydro-1H-pyrazolo[4,3-c]pyridin-5(4H)-yl)ethanone]: the IC50 at RBP4 was found to be 11.6 nM; on RBP4-TTR interaction, 30.8 nM. As for `CC(=O)N1Cc2[nH]nc(C(=O)N3CCC(c4ccc(F)c(F)c4C(F)(F)F)CC3)c2C1` [Compound 83, 1-(3-(4-(3,4-Difluoro-2-(trifluoromethyl)phenyl)piperidine-1-carbonyl)pyrrolo[3,4-c]pyrazol-5(1H,4H,6H)-yl)ethanone], the half-maximal inhibitory concentration (IC50) was 11.6 nM and < 1.37 nM at RBP4; 30.8 nM and 4.85 nM at RBP4-TTR interaction. Regarding `CCN1CCc2[nH]nc(C(=O)N3CCC(c4ccc(F)c(F)c4C(F)(F)F)CC3)c2C1` [Compound 87, (4-(3,4-difluoro-2-(trifluoromethyl)phenyl)piperidin-1-yl)(5-ethyl-4,5,6,7-tetrahydro-1H-pyrazolo[4,3-c]pyridin-3-yl)methanone], the IC50 at RBP4-TTR interaction is 22.2 nM and 16.4 nM.

Turning to `O=C(c1n[nH]c2c1CN(CC1CC1)CC2)N1CCC(c2ccc(F)c(F)c2C(F)(F)F)CC1` [Compound 88, (5-(cyclopropylmethyl)-4,5,6,7-tetrahydro-1Hpyrazolo[4,3-c]pyridin-3-yl)(4-(3,4-difluoro-2-(trifluoromethyl)phenyl)piperidin-1-yl)methanone], the IC50 on RBP4 was 14.7 nM and 13.4 nM. For `O=C(c1n[nH]c2c1CN(CC1CC1)C2)N1CCC(c2ccc(F)c(F)c2C(F)(F)F)CC1` [Compound 97, (5-(cyclopropylmethyl)-1,4,5,6-tetrahydropyrrolo[3,4-c]pyrazol-3-yl)(4-(3,4-difluoro-2-(trifluoromethyl)phenyl)piperidin-1-yl)methanone], the 50% inhibitory concentration (IC50) on RBP4 was 14.3 nM; at RBP4-TTR interaction it was 24 nM.

For the molecule `CC(C)(C)CN1Cc2[nH]nc(C(=O)N3CCC(c4ccc(F)c(F)c4C(F)(F)F)CC3)c2C1` [Compound 99, (4-(3,4-difluoro-2-(trifluoromethyl)phenyl)piperidin-1-yl)(5-neopentyl-1,4,5,6-tetrahydropyrrolo[3,4-c]pyrazol-3-yl)methanone], the IC50 on RBP4 came to 22.5 nM; at RBP4-TTR interaction, 147 nM. For `O=C(c1ccncc1)N1Cc2[nH]nc(C(=O)N3CCC(c4ccc(F)c(F)c4C(F)(F)F)CC3)c2C1` [Compound 105, (4-(3,4-difluoro-2(trifluoromethyl)phenyl)piperidin-1-yl)(5-isonicotinoyl-1,4,5,6-tetrahydropyrrolo[3,4-c]pyrazol-3-yl)methanone] the same measures were 11.2 nM and 36.4 nM. In the same order, the values of `CNC(=O)N1CCc2c(C(=O)N3CCC(c4ccc(F)c(F)c4C(F)(F)F)CC3)n[nH]c2C1` [Compound 112, 3-(4-(3,4-Difluoro-2-(trifluoromethyl)phenyl)piperidine-1-carbonyl)-N-methyl-1,4,5,7-tetrahydro-6Hpyrazolo[3,4-c]pyridine-6-carboxamide] are 11.5 nM and 27.5 nM. As for `CN1CCc2c(C(=O)N3CCC(c4ccc(F)c(F)c4C(F)(F)F)CC3)n[nH]c2C1` [Compound 113, (4-(3,4-Difluoro-2-(trifluoromethyl)phenyl)piperidin-1-yl)(6-methyl-4,5,6,7-tetrahydro-1H-pyrazolo[3,4-c]pyridin-3-yl)methanone], the IC50 on RBP4 turned out to be 8.57 nM; at RBP4-TTR interaction, 29.7 nM.

Consider `N#CN1CCc2c(C(=O)N3CCC(c4ccc(F)c(F)c4C(F)(F)F)CC3)n[nH]c2C1` [Compound 120, 3-(4-(3,4-Difluoro-2-(trifluoromethyl)phenyl)piperidine-1-carbonyl)-1,4,5,7-tetrahydro-6H-pyrazolo[3,4-c]pyridine-6-carbonitrile], for which the 50% inhibitory concentration (IC50) at RBP4-TTR interaction was 21 nM.

With `CC(C)C(=O)N1CCc2c(C(=O)N3CCC(c4ccc(F)c(F)c4C(F)(F)F)CC3)n[nH]c2C1` [Compound 121, 1-(3-(4-(3,4-Difluoro-2-(trifluoromethyl)phenyl)piperidine-1-carbonyl)-1,4,5,7-tetrahydro-6H-pyrazolo[3,4-c]pyridin-6-yl)-2-methylpropan-1-one], the IC50 is 8.84 nM at RBP4 and 31.8 nM on RBP4-TTR interaction.

Turning to `COCCN1CCc2c(C(=O)N3CCC(c4ccc(F)c(F)c4C(F)(F)F)CC3)n[nH]c2C1` [Compound 124, (4-(3,4-Difluoro-2-(trifluoromethyl)phenyl)piperidin-1-yl)(6-(2-methoxyethyl)-4,5,6,7-tetrahydro-1H-pyrazolo[3,4-c]pyridin-3-yl)methanone], the figures for the IC50 at RBP4 and at RBP4-TTR interaction were 14.6 nM and 24.9 nM, respectively.

Molecule `O=C(c1n[nH]c2c1CN(C(=O)N1CCCCC1)C2)N1CCC(c2ccc(F)c(F)c2C(F)(F)F)CC1` [Compound 128, (4-(3,4-Difluoro-2-(trifluoromethyl)phenyl)piperidin-1-yl)(5-(piperidine-1-carbonyl)-1,4,5,6 tetrahydropyrrolo[3,4-c]pyrazol-3-yl)methanone] registered an IC50 at RBP4 of 18.4 nM. In the case of `N#CN1CCc2c(C(=O)N3CCC(c4cccc(F)c4Cl)CC3)n[nH]c2C1` [Compound 148, 3-(4-(2-chloro-3-fluorophenyl)piperidine-1-carbonyl)-4,5-dihydro-1H-pyrazolo[3,4-c]pyridine-6 (7H)-carbonitrile], on RBP4, the IC50 was 5.12 nM and < 1.37 nM.

Values taken from US9434727B2, “Substituted 4-phenylpiperidines, their preparation and use” (THE TRUSTEES OF COLUMBIA UNIVERSITY IN THE CITY OF NEW YORK, priority 2014, dated 2016).
